Reference: publication PMC8586700 (Frontiers in Pharmacology, 2021)

Experiments:
[1] = Repeated administration, drug concentrations of plasma and brain; assay type: in vivo, SD rats; settings: Group III: CUR and ILE
Experimental: Plasma or brain homogenate of SD rats was taken 50 μL, internal standard solution of 50 μL and protein precipitator of 150 μL were added. After eddy oscillation for 3 min, supernatant was separated by centrifugation.
The concentration of drugs in plasma and brain homogenate after repeated administration was determined according to the same grouping and administration method. The loading dose of 200 mg kg^−1 was given for the first time and half doses for four consecutive days.
Plasma was collected by centrifugation of blood at 3000 RPM for 10min, and stored at -80 °C. Brain tissue of SD rat was dissected, weighed and added with normal saline at a volume of 2 ml g^−1. After homogenating brain tissue for 3 min by a homogenizer at 14,000 RPM, the supernatant was collected after centrifugation at 12,000 RPM for 10 min.

[2] = Stability experiment in plasma and brain homogenate samples; assay type: in vitro ADME, SD rats
Experimental: Three blank samples of plasma and brain homogenate of SD rats were added into the mixed standard solution. The stability experiment included placing at room temperature for 12 h, repeatedly freeze-thaw for three times and frozen for 15 days.

Compound: O=C(/C=C/c1ccc2c(c1)OCO2)N1CCCCC1 [ILE, Ilepcimide, reference compound]
- Mean concentrations±sd, ILE in plasma after multiple doses [1]: 2800 ± 300 ng/mL
- Recovery after 12 h placement at room temperature ([2]; brain homogenate samples): only showed slight decrease
- Recoveries after being kept at room temperature for 12 h ([2]; plasma samples): < 90%
